Patent publication US8828401B2, “Cytotoxic peptides and antibody drug conjugates thereof” (Pfizer Inc., priority 2011, dated 2014)

System: MDA-MB-468 breast xenografts
Experiment: MDA-MB-468 breast xenografts with anti-Notch ADCs
Assay type: in vivo, female SCID Hairless Outbred (SHO) mice
Conditions: vc6780 study
Experimental: Humanized anti-Notch antibodies, hu28 and hu75, and rat-human chimeric anti-Notch antibodies, ch28 and ch75, were conjugated to various linker-payload combinations and tested in 37622A1 non-small cell lung cancer (NSCLC), HCC2429 lung cancer, MDA-MB-468 breast cancer and N87 gastric cancer xenograft models. For each model described below the first dose was given on Day 0. The tumors were measured at least once a week and their volume was calculated with the formula: tumor volume (mm^3)=0.5×(tumor width^2)(tumor length). The mean tumor volumes (±S.E.M.) for each treatment group were calculated having a maximum of 10 animals and a minimum of 6 animals to be included.
Similar in vivo experiments were performed with the MDA-MB-468 breast cancer cell line as described above. […] To generate xenografts, female SCID Hairless Outbred (SHO) mice were orthotopically implanted with 10×10^6 MDA-MB-468 cells containing 50% Matrigel (BD Biosciences) in the mammary fat pad. When the tumors reached a volume of 250 to 450 mm^3, the tumors were staged to ensure uniformity of the tumor mass among various treatment groups. The MDA-MB-468 breast model was dosed intraveneously Q4dx4 with PBS vehicle, humanized anti-Notch ADCs and control huNeg-8.8 ADCs at the doses provided in Tables 14 and 15.

B1: hu75-vc6780 (conjugate)
heavy: EVQLVESGGGLVQPGGSLRLSCAASGYAFTDYWMTWVRQAPGKGLEWVAEISPNSGGTNFNEKFKGRFTISVDNAKNSLYLQMNSLRAEDTAVYYCARGEIRYNWFAYWGQGTLVTVSSASTKGPSVFPLAPSSKSTSGGTAALGCLVKDYFPEPVTVSWNSGALTSGVHTFPAVLQSSGLYSLSSVVTVPSSSLGTQTYICNVNHKPSNTKVDKKV[human IgG1 Fc left out]
light: DIQMTQSPSSLSASVGDRVTITCKASQNVGNNIAWYQQKPGKAPKLLIYYASNRYTGVPSRFSGSGYGTDFTLTISSLQPEDFATYYCQRLYNSPFTFGGGTKVEIKRTVAAPSVFIFPPSDEQLKSGTASVVCLLNNFYPREAKVQWKVDNALQSGNSQESVTEQDSKDSTYSLSSTLTLSKADYEKHKVYACEVTHQGLSSPVTKSFNRGEC
tumor volume (mm^3 ± SEM) (Dose 1 mg/kg Q4dx4 iv, DAY 7): 434 ± 29 mm^3 | tumor volume (mm^3 ± SEM) (Dose 1 mg/kg Q4dx4 iv, DAY 11): 471 ± 39 mm^3 | tumor volume (mm^3 ± SEM) (Dose 1 mg/kg Q4dx4 iv, DAY 14): 470 ± 44 mm^3 | tumor volume (mm^3 ± SEM) (Dose 1 mg/kg Q4dx4 iv, DAY 19): 536 ± 49 mm^3 | tumor volume (mm^3 ± SEM) (Dose 1 mg/kg Q4dx4 iv, DAY 22): 552 ± 44 mm^3 | tumor volume (mm^3 ± SEM) (Dose 1 mg/kg Q4dx4 iv, DAY 25): 597 ± 48 mm^3 | tumor volume (mm^3 ± SEM) (Dose 1 mg/kg Q4dx4 iv, DAY 28): 660 ± 53 mm^3 | tumor volume (mm^3 ± SEM) (Dose 1 mg/kg Q4dx4 iv, DAY 32): 634 ± 74 mm^3 | tumor volume (mm^3 ± SEM) (Dose 1 mg/kg Q4dx4 iv, DAY 35): 742 ± 80 mm^3 | tumor volume (mm^3 ± SEM) (Dose 1 mg/kg Q4dx4 iv, DAY 40): 794 ± 87 mm^3 | tumor volume (mm^3 ± SEM) (Dose 1 mg/kg Q4dx4 iv, DAY 43): 878 ± 78 mm^3 | tumor volume (mm^3 ± SEM) (Dose 1 mg/kg Q4dx4 iv, DAY 46): 868 ± 99 mm^3 | tumor volume (mm^3 ± SEM) (Dose 1 mg/kg Q4dx4 iv, DAY 49): 996 ± 109 mm^3 | tumor volume (mm^3 ± SEM) (Dose 3 mg/kg Q4dx4 iv, DAY 0): 344 ± 11 mm^3 | tumor volume (mm^3 ± SEM) (Dose 3 mg/kg Q4dx4 iv, DAY 7): 378 ± 21 mm^3 | tumor volume (mm^3 ± SEM) (Dose 3 mg/kg Q4dx4 iv, DAY 11): 403 ± 21 mm^3 | tumor volume (mm^3 ± SEM) (Dose 3 mg/kg Q4dx4 iv, DAY 14): 370 ± 28 mm^3 | tumor volume (mm^3 ± SEM) (Dose 3 mg/kg Q4dx4 iv, DAY 19): 339 ± 19 mm^3 | tumor volume (mm^3 ± SEM) (Dose 3 mg/kg Q4dx4 iv, DAY 22): 360 ± 17 mm^3 | tumor volume (mm^3 ± SEM) (Dose 3 mg/kg Q4dx4 iv, DAY 25): 381 ± 23 mm^3 | tumor volume (mm^3 ± SEM) (Dose 3 mg/kg Q4dx4 iv, DAY 28): 443 ± 33 mm^3 | tumor volume (mm^3 ± SEM) (Dose 3 mg/kg Q4dx4 iv, DAY 32): 437 ± 28 mm^3 | tumor volume (mm^3 ± SEM) (Dose 3 mg/kg Q4dx4 iv, DAY 35): 495 ± 33 mm^3 | tumor volume (mm^3 ± SEM) (Dose 3 mg/kg Q4dx4 iv, DAY 40): 535 ± 41 mm^3 | tumor volume (mm^3 ± SEM) (Dose 3 mg/kg Q4dx4 iv, DAY 43): 619 ± 47 mm^3 | tumor volume (mm^3 ± SEM) (Dose 3 mg/kg Q4dx4 iv, DAY 46): 636 ± 38 mm^3 | tumor volume (mm^3 ± SEM) (Dose 3 mg/kg Q4dx4 iv, DAY 49): 723 ± 71 mm^3 | tumor volume (mm^3 ± SEM) (Dose 3 mg/kg Q4dx4 iv, DAY 53): 795 ± 67 mm^3 | tumor volume (mm^3 ± SEM) (Dose 3 mg/kg Q4dx4 iv, DAY 56): 819 ± 77 mm^3 | tumor volume (mm^3 ± SEM) (Dose 3 mg/kg Q4dx4 iv, DAY 60): 976 ± 115 mm^3 | tumor volume (mm^3 ± SEM) (Dose 10 mg/kg Q4dx4 iv, DAY 0): 343 ± 10 mm^3 | tumor volume (mm^3 ± SEM) (Dose 10 mg/kg Q4dx4 iv, DAY 7): 370 ± 18 mm^3 | tumor volume (mm^3 ± SEM) (Dose 10 mg/kg Q4dx4 iv, DAY 11): 302 ± 21 mm^3 | tumor volume (mm^3 ± SEM) (Dose 10 mg/kg Q4dx4 iv, DAY 14): 228 ± 19 mm^3 | tumor volume (mm^3 ± SEM) (Dose 10 mg/kg Q4dx4 iv, DAY 19): 112 ± 23 mm^3 | tumor volume (mm^3 ± SEM) (Dose 10 mg/kg Q4dx4 iv, DAY 22): 52 ± 21 mm^3 | tumor volume (mm^3 ± SEM) (Dose 10 mg/kg Q4dx4 iv, DAY 25): 63 ± 25 mm^3 | tumor volume (mm^3 ± SEM) (Dose 10 mg/kg Q4dx4 iv, DAY 28): 64 ± 26 mm^3 | tumor volume (mm^3 ± SEM) (Dose 10 mg/kg Q4dx4 iv, DAY 32): 71 ± 31 mm^3 | tumor volume (mm^3 ± SEM) (Dose 10 mg/kg Q4dx4 iv, DAY 35): 85 ± 38 mm^3 | tumor volume (mm^3 ± SEM) (Dose 10 mg/kg Q4dx4 iv, DAY 40): 125 ± 44 mm^3 | tumor volume (mm^3 ± SEM) (Dose 10 mg/kg Q4dx4 iv, DAY 43): 134 ± 42 mm^3 | tumor volume (mm^3 ± SEM) (Dose 10 mg/kg Q4dx4 iv, DAY 46): 143 ± 42 mm^3 | tumor volume (mm^3 ± SEM) (Dose 10 mg/kg Q4dx4 iv, DAY 49): 159 ± 44 mm^3 | tumor volume (mm^3 ± SEM) (Dose 10 mg/kg Q4dx4 iv, DAY 53): 201 ± 63 mm^3 | tumor volume (mm^3 ± SEM) (Dose 10 mg/kg Q4dx4 iv, DAY 56): 211 ± 63 mm^3 | tumor volume (mm^3 ± SEM) (Dose 10 mg/kg Q4dx4 iv, DAY 60): 240 ± 63 mm^3 | tumor volume (mm^3 ± SEM) (Dose 10 mg/kg Q4dx4 iv, DAY 63): 201 ± 57 mm^3
